# Antibody variant affinities, Ab-14 light chain, assay 1

Target: peptide PDVDLGDISGINAS, taken from heptad repeat 2 (HR2) of SARS-CoV-2 spike.

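The library (AAYL50) carries one to three amino acid substitutions per variant, with no insertions or deletions. In AlphaSeq, yeast of one mating type display the scFv and yeast of the other type display the target. After mating in shaken culture at 30 °C for 16 h, diploids were selected and their barcode pairs sequenced. The ratio of observed to expected reads was calibrated, replicate by replicate, on BCL2-family standards whose Kd was known from biolayer interferometry. Each pool was mated in three replicate cultures.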

Parent: Ab-14, a human scFv built as VH, the linker GGGGSGGGGSGGGGS, VL. Only the CDRs of the light chain vary.
VH: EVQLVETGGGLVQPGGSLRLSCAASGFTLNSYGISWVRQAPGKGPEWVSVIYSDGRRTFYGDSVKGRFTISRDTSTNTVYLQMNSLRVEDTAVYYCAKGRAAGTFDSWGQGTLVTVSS
VL: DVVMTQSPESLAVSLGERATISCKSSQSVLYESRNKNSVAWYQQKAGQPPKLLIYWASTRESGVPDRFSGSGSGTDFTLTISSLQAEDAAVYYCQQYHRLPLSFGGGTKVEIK

Changes read parent residue, position, new residue, counted from the first residue of the VL shown.
All variants listed here change E61 of the VL, counted from its first residue.
Affinities are written as log10 Kd with Kd in nM; a lower number is a better binder.
Where no diploid with the target was found in that replicate, the entry reads "ND": below detection, most likely a poor binder, though not proof of it.
Nonspecific signal, from three strains lacking the peptide, appeared in 18% of pairings of library AAYL50, centred on 4.19 (5% of these signals below 2.99); values are not corrected for it. For each scFv, signals with the empty controls are counted beside the result.

For E32L+E61R+Q95G, the assay gave ND, ND, ND (controls 0 of 9). Variant E32N+A57N+E61G gave ND, ND, 3.14 (controls 0 of 9). With E61I+H98K the result was 2.54, 2.51, 2.57 (controls 2 of 9). For N37T+E61F+L100Q, the assay gave ND, ND, ND (controls 1 of 9). For K36E+E61D+L100N, the assay gave ND, ND, ND (controls 0 of 9). For K36M+N37C+E61H, the assay gave 4.23, 3.22, 3.66 (controls 0 of 9). With V29Q+S33M+E61L the result was 1.19, 1.33, 1.36 (controls 5 of 9).

Variant S58R+E61C+Y97F gave 2.81, 2.49, 3.22 (controls 5 of 9). For Q27C+Y31T+E61A, the assay gave 1.87, 1.72, 1.58 (controls 2 of 9). Variant Y31N+E61H+Y97T gave ND, ND, ND (controls 1 of 9). With V29N+A40W+E61I the result was ND, ND, ND (controls 1 of 9). Variant E61N+Q95P+R99D showed ND, ND, ND (controls 2 of 9). For S28E+E61P+L102M, the assay gave ND, 2.98, 2.56 (controls 1 of 9). For S26Y+A57H+E61L, the assay gave ND, ND, ND (controls 1 of 9).

Variant Y31Q+E61W+L100W showed 4.56, ND, 6.29 (controls 4 of 9). For V29G+E61H+Q96S, the assay gave 3.26, 3.06, 2.98 (controls 0 of 9). For V29T+E61M+Y97H, the assay gave 3.46, 3.82, ND (controls 1 of 9). Variant Q27K+A57V+E61F showed 1.79, 1.73, 2.80 (controls 0 of 9). Variant E61F showed 1.48, 1.61, 1.48 (controls 3 of 9). With R34E+E61A+S62K the result was 0.69, 0.96, 0.84 (controls 4 of 9). Variant S28A+N35P+E61K gave ND, ND, ND (controls 0 of 9).

For N37A+E61H, the assay gave 1.36, 1.40, 1.46 (controls 2 of 9). For A40S+A57C+E61M, the assay gave 4.04, ND, ND (controls 3 of 9). With V39F+E61N+H98W the result was 2.97, 2.55, 2.18 (controls 1 of 9). For V29W+E61Y+S62V, the assay gave 0.42, 0.66, 0.55 (controls 3 of 9). Variant K24W+E61L+L102R gave 3.83, 2.89, 2.52 (controls 0 of 9). For L30Y+R60K+E61A, the assay gave 0.78, 0.87, 1.08 (controls 0 of 9). Variant S28Q+V29L+E61I showed 1.88, ND, ND (controls 0 of 9).

Variant S26D+L30Q+E61W gave 1.26, 1.29, 1.25 (controls 1 of 9). With A40W+R60W+E61Y the result was ND, ND, ND (controls 3 of 9). Variant K24D+R34F+E61D showed 3.65, ND, ND (controls 1 of 9). With S58I+E61Y+Q95N the result was ND, 5.13, ND (controls 1 of 9). Variant Q27K+A57H+E61F gave ND, ND, ND (controls 0 of 9). For V29W+E61I, the assay gave ND, ND, ND (controls 0 of 9). Variant E61C+Y97K+P101W showed ND, 4.24, 4.90 (controls 3 of 9).

Variant N37K+E61T+L102Y showed ND, ND, ND (controls 2 of 9).

The opening 5 entries, copied out:

changes,log10 Kd (nM) by replicate,signal with controls
E32L+E61R+Q95G,"ND, ND, ND",0/9
E32N+A57N+E61G,"ND, ND, 3.14",0/9
E61I+H98K,"2.54, 2.51, 2.57",2/9
N37T+E61F+L100Q,"ND, ND, ND",1/9
K36E+E61D+L100N,"ND, ND, ND",0/9

Data: MIT Lincoln Laboratory AlphaSeq set, Engelhart et al. 2022, doi:10.1038/s41597-022-01779-4, as distributed in FLAb.